Experimental data published in patent US7517874B2 (priority 2007, dated 2009).
Where two headings read alike, the source gives them in different places.

Chains of the proteins cited; added tags and fusions are not shown.
UniProt P34972, whole entry: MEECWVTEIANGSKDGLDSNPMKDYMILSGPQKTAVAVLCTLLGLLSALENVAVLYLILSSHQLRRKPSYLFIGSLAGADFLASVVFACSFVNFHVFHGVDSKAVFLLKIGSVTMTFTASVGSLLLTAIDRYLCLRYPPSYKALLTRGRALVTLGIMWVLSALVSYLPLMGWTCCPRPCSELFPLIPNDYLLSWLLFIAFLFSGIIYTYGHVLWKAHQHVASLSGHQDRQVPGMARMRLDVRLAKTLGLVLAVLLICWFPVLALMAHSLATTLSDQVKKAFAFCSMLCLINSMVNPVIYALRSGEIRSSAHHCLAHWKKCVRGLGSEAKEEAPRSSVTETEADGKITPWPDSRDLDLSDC

Target: human CB2 receptor (hCB2) (Homo sapiens, UniProt P34972)
Experiment: cell-based
Assay type: cell-based
Settings: for +/− HCB2: agonist or inverse agonist at hCB2
[1] = groups >100 nM-10 μM and >10 μM, cAMP, CHO-K1 hCB2, read-out: EC50 HCB2

| Structure (SMILES) | +/− HCB2 | further results |
| --- | --- | --- |
| CNC(=O)[C@@H](NC(=O)c1nc(-c2ccccc2)n2c1CNCC2)C(C)(C)C [Compound 2, (S)-N-(3,3-dimethyl-1-(methylamino)-1-oxobutan-2-yl)-3-phenyl-5,6,7,8-tetrahydroimidazo[1,5-a]pyrazine-1-carboxamide] | + |  |
| O=C(NC1CCCCC1)c1nc(-c2ccccc2)n2c1CNCC2 [Compound 47, N-cyclohexyl-3-phenyl-5,6,7,8-tetrahydroimidazo[1,5-a]pyrazine-1-carboxamide] | + |  |
| CC(C)CN1CCn2c(-c3ccccc3)nc(C(=O)N[C@H](C)C(C)(C)C)c2C1 [Compound 52, (R)-N-(3,3-dimethylbutan-2-yl)-7-isobutyl-3-phenyl-5,6,7,8-tetrahydroimidazo[1,5-a]pyrazine-1-carboxamide] | + |  |
| CNC(=O)[C@@H](NC(=O)c1nc(-c2ccccc2)n2c1CN(CCC(C)(C)C)CC2)C(C)(C)C [Compound 54, (S)-N-(3,3-dimethyl-1-(methylamino)-1-oxobutan-2-yl)-7-(3,3-dimethylbutan)-3-phenyl-5,6,7,8-tetrahydroimidazo[1,5-a]pyrazine-1-carboxamide] | − |  |
| CC(C)(C)[C@@H](CO)NC(=O)c1nc(-c2ccccc2)n2c1CN(CC1CC1)CC2 [Compound 84, (S)-7-(cyclopropylmethyl)-N-(1-hydroxy-3,3-dimethylbutan-2-yl)-3-phenyl-5,6,7,8-tetrahydroimidazo[1,5-a]pyrazine-1-carboxamide] |  | EC50: > 10000 nM |
| COC(=O)[C@@H](NC(=O)c1nc(-c2ccccc2)n2c1CN(C)CC2)C(C)(C)C [Compound 86, (S)-methyl 3,3-dimethyl-2-(7-methyl-3-phenyl-5,6,7,8-tetrahydro-imidazo[1,5-a]pyrazine-1-carboxamido)butanoate] |  | EC50: > 10000 nM |
| CNC(=O)[C@H](C)NC(=O)c1nc(-c2ccccc2)n2c1CN(S(=O)(=O)c1ccc(F)cc1)CC2 [Compound 110, (S)-7-(4-fluorophenylsulfonyl)-N-(1-(methylamino)-1-oxopropan-2-yl)-3-phenyl-5,6,7,8-tetrahydroimidazo[1,5-a]pyrazine-1-carboxamide] |  | EC50: > 10000 nM |
| CC12CCC(C1)C(C)(C)C2NC(=O)c1nc(-c2ccccc2)n2c1CN(C(=O)c1ccco1)CC2 (stereo not drawn) [Compound 122, 7-(furan-2-carbonyl)-3-phenyl-N-(1,3,3-trimethylbicyclo[2.2.1]heptan-2-yl)-5,6,7,8-tetrahydroimidazo[1,5-a]pyrazine-1-carboxamide] |  | EC50 [1]: > 10000 nM |
| CNC(=O)[C@@H](NC(=O)c1nc(-c2ccccc2)n2c1CN(C(=O)c1ccccc1)CC2)C(C)(C)C [Compound 127, (S)-7-benzoyl-N-(3,3-dimethyl-1-(methylamino)-1-oxobutan-2-yl)-3-phenyl-5,6,7,8-tetrahydroimidazo[1,5-a]pyrazine-1-carboxamide] |  | EC50: > 10000 nM |
| CNC(=O)[C@@H](NC(=O)c1nc(-c2ccccc2)n2c1CN(C(C)=O)CC2)C(C)(C)C [Compound 174, (S)-7-acetyl-N-(3,3-dimethyl-1-(methylamino)-1-oxobutan-2-yl)-3-phenyl-5,6,7,8-tetrahydroimidazo[1,5-a]pyrazine-1-carboxamide] | + |  |
| COC(=O)N1CCn2c(-c3ccccc3)nc(C(=O)NCC3CCOCC3)c2C1 [Compound 186, methyl 3-phenyl-1-((tetrahydro-2H-pyran-4-yl)methylcarbamoyl)-5,6-dihydroimidazo[1,5-a]pyrazine-7(8H)-carboxylate] |  | EC50: > 10000 nM |
| CN1CCn2c(-c3ccc(Cl)cc3F)nc(C(=O)N3CCC(n4cc(-c5ccccc5)[nH]c4=O)CC3)c2C1 [Compound 227, 1-(1-(3-(4-chloro-2-fluorophenyl)-7-methyl-5,6,7,8-tetrahydroimidazo[1,5-a]pyrazine-1-carbonyl)piperidin-4-yl)-4-phenyl-1H-imidazol-2(3H)-one] |  | EC50 [1]: > 10000 nM |
| CNC(=O)[C@@H](NC(=O)c1nc(C2=CCCC2)n2c1CN(C)CC2)C(C)(C)C [Compound 238, (S)-3-cyclopentenyl-N-(3,3-dimethyl-1-(methylamino)-1-oxobutan-2-yl)-7-methyl-5,6,7,8-tetrahydroimidazo[1,5-a]pyrazine-1-carboxamide] | + |  |
| CNC(=O)[C@@H](NC(=O)c1nc(-c2ccc(F)cc2)n2c1CN(C)CC2)C(C)(C)C [Compound 247, (S)-N-(3,3-dimethyl-1-(methylamino)-1-oxobutan-2-yl)-3-(4-fluorophenyl)-7-methyl-5,6,7,8-tetrahydroimidazo[1,5-a]pyrazine-1-carboxamide] | + |  |
| CNC(=O)[C@@H](NC(=O)c1nc(-c2ccccc2F)n2c1CN(C)CC2)C(C)(C)C [Compound 258, (S)-N-(3,3-dimethyl-1-(methylamino)-1-oxobutan-2-yl)-3-(2-fluorophenyl)-7-methyl-5,6,7,8-tetrahydroimidazo[1,5-a]pyrazine-1-carboxamide] | + |  |
| CNC(=O)[C@@H](NC(=O)c1nc(-c2ccccc2)n2c1CN(c1ncccn1)CC2)C(C)(C)C [Compound 298, N-(3,3-dimethyl-1-(methylamino)-1-oxobutan-2-yl)-3-phenyl-7-(pyrimidin-2-yl)-5,6,7,8-tetrahydroimidazo[1,5-a]pyrazine-1-carboxamide] | + |  |
| CNC(=O)[C@@H](NC(=O)c1nc(CCCN2CCCCC2)n2c1CN(C)CC2)C(C)(C)C [Compound 307, (S)-N-(3,3-dimethyl-1-(methylamino)-1-oxobutan-2-yl)-7-methyl-3-(3-(piperidin-1-yl)propyl)-5,6,7,8-tetrahydroimidazo[1,5-a]pyrazine-1-carboxamide] | + |  |
| CNC(=O)[C@@H](NC(=O)c1nc(-c2ccccc2)n2c1CN(C)CCC2)C(C)(C)C [Compound 317, (S)-N-(3,3-dimethyl-1-(methylamino)-1-oxobutan-2-yl)-8-methyl-3-phenyl-6,7,8,9-tetrahydro-5H-imidazo[1,5-a][1,4]diazepine-1-carboxamide] | + |  |
| CNC(=O)[C@@H](NC(=O)c1nc(-c2ccc(C(=O)N3CCN(C)CC3)cc2)n2c1CN(C)CCC2)C(C)(C)C [Compound 392, (S)-N-(3,3-dimethyl-1-(methylamino)-1-oxobutan-2-yl)-8-methyl-3-(4-(4-methylpiperazin-1-carbonyl)phenyl)-6,7,8,9-tetrahydro-5H-imidazo[1,5-a][1,4]diazepine-1-carboxamide] |  | EC50 [1]: > 10000 nM |
| CNC(=O)[C@@H](NC(=O)c1nc(-c2ccc(C(=O)N(C)C)cc2)n2c1CN(C)CCC2)C(C)(C)C [Compound 394, (S)-N-(3,3-dimethyl-1-(methylamino)-1-oxobutan-2-yl)-3-(4-(dimethylcarbamoyl)phenyl)-8-methyl-6,7,8,9-tetrahydro-5H-imidazo[1,5-a][1,4]diazepine-1-carboxamide] |  | EC50: > 10000 nM |
| CNC(=O)[C@@H](NC(=O)c1nc(/C=C/COC)n2c1CN(C)CCC2)C(C)(C)C [Compound 398, (S,E)-N-(3,3-dimethyl-1-(methylamino)-1-oxobutan-2-yl)-3-(3-methoxyprop-1-enyl)-8-methyl-6,7,8,9-tetrahydro-5H-imidazo[1,5-a][1,4]diazepine-1-carboxamide] | + |  |
| CNC(=O)[C@@H](NC(=O)c1nc(-c2ccccc2C(C)C)n2c1CN(C)CCC2)C(C)(C)C [Compound 403, (S)-N-(3,3-dimethyl-1-(methylamino)-1-oxobutan-2-yl)-3-(2-isopropylphenyl)-8-methyl-6,7,8,9-tetrahydro-5H-imidazo[1,5-a][1,4]diazepine-1-carboxamide] |  | EC50: > 10000 nM |
| CNC(=O)c1cc(-c2nc(C(=O)N[C@H](C(=O)NC)C(C)(C)C)c3n2CCCN(C)C3)ccc1F [Compound 406, (S)-N-(3,3-dimethyl-1-(methylamino)-1-oxobutan-2-yl)-3-(4-fluoro-3-(methylcarbamoyl)phenyl)-8-methyl-6,7,8,9-tetrahydro-5H-imidazo[1,5-a][1,4]diazepine-1-carboxamide] |  | EC50: > 10000 nM |
| C=Cc1nc(C(=O)N[C@H](C(=O)NC)C(C)(C)C)c2n1CCCN(C)C2 [Compound 430, (S)-N-(3,3-dimethyl-1-(methylamino)-1-oxobutan-2-yl)-8-methyl-3-vinyl-6,7,8,9-tetrahydro-5H-imidazo[1,5-a][1,4]diazepine-1-carboxamide] | + |  |
| CNC(=O)[C@@H](NC(=O)c1nc(C2=CCCC2)n2c1CN(C)CCC2)C(C)(C)C [Compound 456] | + |  |
| CNC(=O)[C@@H](NC(=O)c1nc(CCC(C)(C)C)n2c1CN(C)CCC2)C(C)(C)C [Compound 488, (S)-N-(3,3-dimethyl-1-(methylamino)-1-oxobutan-2-yl)-3-(3,3-dimethylbutyl)-8-methyl-6,7,8,9-tetrahydro-5H-imidazo[1,5-a][1,4]diazepine-1-carboxamide] | + |  |
| CNC(=O)[C@@H](NC(=O)c1nc(CCC2CCCCC2)n2c1CN(C)CCC2)C(C)(C)C [Compound 493, (S)-3-(2-cyclohexylethyl)-N-(3,3-dimethyl-1-(methylamino)-1-oxobutan-2-yl)-8-methyl-6,7,8,9-tetrahydro-5H-imidazo[1,5-a][1,4]diazepine-1-carboxamide] | − |  |
| CNC(=O)[C@@H](NC(=O)c1nc(/C=C/CN2CCCC2)n2c1CN(C)CCC2)C(C)(C)C [Compound 511, (S,E)-N-(3,3-dimethyl-1-(methylamino)-1-oxobutan-2-yl)-8-methyl-3-(3-(pyrrolidin-1-yl)prop-1-enyl)-6,7,8,9-tetrahydro-5H-imidazo[1,5-a][1,4]diazepine-1-carboxamide] | + |  |
| Cc1noc([C@@H](NC(=O)c2nc(-c3ccccc3)n3c2CN(C)CCC3)C(C)(C)C)n1 [Compound 521, (S)-N-(2,2-dimethyl-1-(3-methyl-1,2,4-oxadiazol-5-yl)propyl)-8-methyl-3-phenyl-6,7,8,9-tetrahydro-5H-imidazo[1,5-a][1,4]diazepine-1-carboxamide] | + |  |
| CN1CCCn2c(-c3ccc(F)c(Cl)c3)nc(C(=O)N[C@H](C(=O)N(C)C)C(C)(C)C)c2C1 [Compound 558, (S)-3-(3-chloro-4-fluorophenyl)-N-(1-(dimethylamino)-3,3-dimethyl-1-oxobutan-2-yl)-8-methyl-6,7,8,9-tetrahydro-5H-imidazo[1,5-a][1,4]diazepine-1-carboxamide] | + |  |
